Laboratory results: patent US8426598B2, “N-heterocyclic M1 receptor positive allosteric modulators” (Merck, Sharp & Dohme, Corp., priority 2008, dated 2013)

Protein sequences, listed by entry. Tags and fused reporters are not part of them.
UniProt P11229, whole entry: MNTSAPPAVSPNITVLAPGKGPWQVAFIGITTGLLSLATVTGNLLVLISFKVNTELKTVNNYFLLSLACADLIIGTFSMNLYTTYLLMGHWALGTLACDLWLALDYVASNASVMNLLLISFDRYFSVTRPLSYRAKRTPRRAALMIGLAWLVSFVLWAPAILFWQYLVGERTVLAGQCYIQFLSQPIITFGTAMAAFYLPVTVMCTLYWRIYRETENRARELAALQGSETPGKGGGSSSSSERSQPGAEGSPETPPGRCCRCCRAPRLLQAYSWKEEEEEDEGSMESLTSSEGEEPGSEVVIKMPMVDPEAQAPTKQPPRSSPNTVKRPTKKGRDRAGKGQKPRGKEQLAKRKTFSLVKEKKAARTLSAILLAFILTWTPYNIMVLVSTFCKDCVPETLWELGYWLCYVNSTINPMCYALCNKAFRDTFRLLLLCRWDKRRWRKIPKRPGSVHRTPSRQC

Biological target: acetylcholine muscarinic M1 receptor (CHOnfat/hM1 cells) (Homo sapiens, UniProt P11229)
Experiment: muscarinic FLIPR assay: intracellular calcium, potentiation of an EC20 concentration of acetylcholine
Conditions: read-out: IP Value (inflection point), FLIPR Ca2+, 4 min preincubation, then EC20 acetylcholine (3 nM final)
Procedure: The assay studies the effect of one or several concentrations of test compounds on basal or acetylcholine-stimulated Ca^2+ levels using FLIPR.
Compounds are prepared and subjected to a preincubation period of 4 min. Thereafter, a single EC20 concentration of acetylcholine is added to each well (3 nM final). The intracellular Ca^2+ level of each sample is measured and compared to an acetylcholine control to determine any modulatory activity.
Cells: CHOnfat/hM1, hM2, hM3 or hM4 cells are plated 24 hr before the assay at a density of 18,000 cells/well (100 μL) in a 384 well plate. CHOnfat/hM1 and CHOnfat/hM3 Growth Medium: 90% DMEM (Hi Glucose); 10% HI FBS; 2 mM L-glutamine; 0.1 mM NEAA; Pen-Strep; and 1 mg/ml Geneticin, are added. For M2Gqi5CHOnfat and M4Gqi5CHOnfat cells, an additional 600 μg/ml hygromycin is added.
Equipment: 384 well plate, 120 μL addition plate; 96-well Whatman 2 ml Uniplate Incubator, 37° C., 5% CO2; Skatron EMBLA-384 Plate Washer; Multimek Pipetting System; Genesis Freedom 200 System; Mosquito System; Temo Nanolitre Pipetting System; and FLIPR^384 Fluorometric Imaging Plate Reader System are used.
Buffers. […]
After 60 min, the cells are washed three times with 100 μL of buffer, leaving 30 μL of buffer in each well. […] A signal test to check background fluorescence and basal fluorescence signal is performed. […]

Structure (SMILES) | EC50
CCOC(=O)c1cn(Cc2ccc(-n3cc(C(O)C(F)(F)F)cn3)cc2)c2cccc(F)c2c1=O (centres unmarked) | 120 nM
C=C(C)c1ccn(-c2ccc(Cn3cc(C(=O)O)c(=O)c4c(F)cccc43)cc2)n1 | 36 nM
